US9040533B2, “Oxime-substituted-quinoxaline-type piperidine compounds as ORL-1 modulators” (priority 2012, dated 2015)

How the values were obtained:
[1] = target: T1, human opioid receptor-like (ORL-1) (Homo sapiens, UniProt P41146); assay: ORL-1 receptor [35S]GTPγS functional binding assay; assay type: biochemical; conditions: for EC50: read-out: GTPγS ORL-1 EC50 [mean ± SEM]
[2] = target: human δ-opioid receptors (Homo sapiens, UniProt P41143); assay: Delta-opioid receptor [35S]GTPγS functional assay; conditions: for EC50: read-out: GTPγS Delta EC50 [mean ± SEM]
[3] = target: T1, human opioid receptor-like (ORL-1); assay: In vitro ORL-1 receptor binding assay ([3H]-nociceptin displacement); conditions: read-out: ORL-1 Ki [Average ± Std Deviation]
[4] = target: human μ-opioid receptors (Homo sapiens, UniProt P35372); assay: In vitro mu-opioid receptor binding assay ([3H]-diprenorphine displacement); conditions: read-out: Mu opioid receptor Ki [Average ± Std Deviation]
[5] = target: T2, kappa opioid receptor (Homo sapiens, UniProt P41145); assay: In vitro kappa-opioid receptor binding assay ([3H]-U69,593 displacement); conditions: read-out: Kappa opioid receptor Ki [Average ± Std Deviation]
[6] = target: human μ-receptors (Homo sapiens, UniProt P35372); assay: Mu-opioid receptor [35S]GTPγS functional assay; conditions: for EC50: read-out: GTPγS Mu EC50 [mean ± SEM]
[7] = target: delta opioid receptor (Homo sapiens, UniProt P41143); assay: In vitro delta-opioid receptor binding assay ([3H]-Naltrindole displacement); conditions: read-out: Delta opioid receptor Ki [Average ± Std Deviation]
[8] = target: T2, kappa opioid receptor; assay: Kappa-opioid receptor [35S]GTPγS functional assay

C/C(=N\OCC(=O)O)c1nc2ccccc2n([C@H]2C[C@H]3CCC[C@@H](C2)N3CC[C@@H]2CC[C@H]3C[C@@H]2C3(C)C)c1=O
GTPγS ORL-1 Emax [mean ± SEM] [1]: 44.0 ± 2.3%
EC50 [1]: 70.9 nM
GTPγS Delta Emax [mean ± SEM] [2]: 108 ± 5%
EC50 [2]: 165 nM
Ki [3]: 12.2 nM
Ki [4]: 425 nM
Ki [5]: 202 nM
GTPγS Mu Emax [mean ± SEM] [6]: 82 ± 10%
EC50 [6]: 514 nM
Ki [7]: 260 nM

NC(=NO)c1nc2ccccc2n([C@H]2C[C@H]3CCC[C@@H](C2)N3C2CC3CCCC(C3)C2)c1=O (stereo partly drawn)
GTPγS ORL-1 Emax [mean ± SEM] [1]: 28.67 ± 0.88%
EC50 [1]: 2.29 nM
GTPγS Delta Emax [mean ± SEM] [2]: 37.33 ± 3.48%
EC50 [2]: 6930 nM
Ki [3]: 3.49 nM
Ki [4]: 122 nM
Ki [5]: 24 nM
Ki [7]: 12700 nM

NC(=O)CO/N=C(\C(=O)O)c1nc2ccccc2n([C@H]2C[C@H]3CCC[C@@H](C2)N3C2CC3CCCC(C3)C2)c1=O (stereo partly drawn) [Compound 38, (Z)-2-(2-amino-2-oxoethoxyimino)-2-(4-((1R,3R)-9-(bicyclo[3.3.1]nonan-3-yl)-9-azabicyclo[3.3.1]nonan-3-yl)-3-oxo-3,4-dihydroquinoxalin-2-yl)acetic acid]
GTPγS ORL-1 Emax [mean ± SEM] [1]: 49.3 ± 8.7%
EC50 [1]: 4.5 nM
Ki [3]: 0.77 nM
Ki [4]: 514 nM
Ki [5]: 98 nM
GTPγS Mu Emax [mean ± SEM] [6]: −1%
Ki [7]: > 20000 nM

NC(=O)CO/N=C(\CCC(=O)O)c1nc2ccccc2n([C@H]2C[C@H]3CCC[C@@H](C2)N3C2CC3CCCCC(C3)C2)c1=O (stereo partly drawn) [Compound 41, (E)-4-(2-amino-2-oxoethoxyimino)-4-(4-((1R,3R)-9-(bicyclo[4.3.1]decan-8-yl)-9-azabicyclo[3.3.1]nonan-3-yl)-3-oxo-3,4-dihydroquinoxalin-2-yl)butanoic acid]
GTPγS ORL-1 Emax [mean ± SEM] [1]: 43.0 ± 5.5%
EC50 [1]: 8.3 nM
Ki [3]: 2.5 nM
Ki [4]: 341 nM
Ki [5]: 200 nM
GTPγS Mu Emax [mean ± SEM] [6]: 22.3 ± 0.7%
EC50 [6]: 159 nM
Ki [7]: 19300 nM

NC(=O)CO/N=C(\C(=O)O)c1nc2ccccc2n([C@H]2C[C@H]3CC[C@@H](C2)N3C2CC3CCCCC(C3)C2)c1=O (stereo partly drawn) [Compound 60]
GTPγS ORL-1 Emax [mean ± SEM] [1]: 35 ± 4.16%
EC50 [1]: 19.2 nM
Ki [3]: 0.41 nM
Ki [4]: 254 nM
Ki [5]: 74.9 nM
GTPγS Kappa Emax [mean ± SEM] [8]: 1%
Ki [7]: > 20000 nM

CC(C)(O/N=C(\C(=O)O)c1nc2ccccc2n([C@H]2C[C@H]3CC[C@@H](C2)N3C2CC3CCCCC(C3)C2)c1=O)C(N)=O (stereo partly drawn) [Compound 61]
GTPγS ORL-1 Emax [mean ± SEM] [1]: 29.75 ± 3.01%
EC50 [1]: 7.58 nM
Ki [3]: 0.91 nM
Ki [4]: 861 nM
Ki [5]: 458 nM
GTPγS Kappa Emax [mean ± SEM] [8]: 1%
Ki [7]: 11500 nM

CN(C)C(=O)CON=C(C(=O)O)c1nc2ccccc2n([C@H]2C[C@H]3CCC[C@@H](C2)N3C2CC3CCCC(C3)C2)c1=O (stereo partly drawn) [Compound 63]
GTPγS ORL-1 Emax [mean ± SEM] [1]: 42.67 ± 0.67%
EC50 [1]: 0.52 nM
Ki [3]: 0.51 nM
Ki [4]: 86.6 nM
Ki [5]: 22.5 nM
GTPγS Mu Emax [mean ± SEM] [6]: −0.33 ± 0.67%
Ki [7]: 14900 nM
